Measured values published in ChEMBL document CHEMBL2331221, “Potent elastase inhibitors from cyanobacteria: structural basis and mechanisms mediating cytoprotective and anti-inflammatory effects in bronchial epithelial cells” (J Med Chem, 2013).

Target: T1, Neutrophil elastase (Homo sapiens, UniProt P08246)
T1 sequence (P08246 whole entry): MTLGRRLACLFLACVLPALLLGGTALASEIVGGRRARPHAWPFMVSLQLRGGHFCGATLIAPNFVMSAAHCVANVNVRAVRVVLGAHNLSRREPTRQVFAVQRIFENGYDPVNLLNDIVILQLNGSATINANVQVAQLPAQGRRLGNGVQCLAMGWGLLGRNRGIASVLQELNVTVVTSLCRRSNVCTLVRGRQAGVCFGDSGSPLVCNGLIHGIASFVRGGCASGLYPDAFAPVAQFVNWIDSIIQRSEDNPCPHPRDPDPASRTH
Experiment: Inhibition of human neutrophil elastase assessed as proteolysis using N-(methoxysuccinyl)-Ala-Ala-Pro-Val-p-nitroanilide substrate incubated for 15 mins prior to substrate addition measured every 30 seconds

IC50: 136 nM
SMILES: CC(C)(C)C(=O)Oc1ccc(S(=O)(=O)Nc2ccccc2C(=O)NCC(=O)O)cc1
